According to paper PMC10157742, “Supramolecular nanofibers co-loaded with dabrafenib and doxorubicin for targeted and synergistic therapy of differentiated thyroid carcinoma” (Theranostics, 2023):
Where two headings read alike, the source gives them in different places.

Key:
[1] = Critical assembly (aggregation) concentration by dynamic light scattering; assay type: physicochemical; conditions: DLS, 532 nm, room temperature (22-25 °C), PBS; drugs co-assembled at 5% w/w; lower CAC = better assembly
Description: To study the assembling ability of the peptides, the critical aggregation concentration (CAC) was determined by dynamic light scattering (DLS) using a laser light scattering spectrometer (BI-200SM) equipped with a digital correlator (BI- 9000AT) at 532 nm at room temperature (22‒25 °C). All containers were washed with acetone and dried under vacuum to eliminate dust, and the PBS solvent was filtered through a 0.22 μM sterile membrane prior to the measurement. Briefly, 100 μL of samples were placed in a specific dish, and the light scattering intensity of different concentrations of samples was optimized and recorded by 90 PLUS. The CAC values were analyzed and fitted using Origin 9.6. Lower CAC values represent a better assembly capacity of the sample.

BCPAP cells = test: In vitro cytotoxicity, MTT assay; assay type: cell-based, human; conditions: SPNs 1.6-200 μM, 48 h, n = 3, at low concentrations
Description: (§1) The cytotoxicity of peptides, free agents, and the co-assemblies towards BCPAP and L02 cells was evaluated using the standard MTT assay. Briefly, the cells were seeded into 96-well plates at a density of 8×10^3 cells per well in 100μL of DMEM medium containing 10% FBS and 1% penicillin-streptomycin. After overnight pre-incubation, the cells were treated with the compound, free agents, and co-assemblies at different concentrations for 48 h. Untreated tumor cells were used as controls. Subsequently, the medium was replaced with an MTT solution (100 μL, 0.5 mg/mL) and further cultured for 4 h. Finally, the supernatant was removed and 100 μL of DMSO was added to each well to dissolve the purple crystals. Cell viability was measured using a microplate reader by recording the absorbance of the formazan product at 570 nm.

[2] = mouse plasma (heparinized), 0.5 mg/mL, 37 °C, acetonitrile precipitation, LC-MS, n = 3
L02 cells = test: In vitro cytotoxicity, MTT assay; assay type: cell-based; conditions: SPNs 1.6-200 μM, 48 h, n = 3, at low concentrations
Description: as §1

[3] = PBS pH = 7.4; clear solution at a concentration of 0.1 wt%

## Biotin-G^DF^DF^DYGRGD [SPNs]
[1]
  critical assembly concentration (CAC): 140.5 µM
BCPAP cells
  cellular viability / toxicity of the carrier: relatively low toxicity
[2]; 6 h
  SPNs remaining intact after incubation with plasma: approximately 95%
[2]; 12 h
  SPNs remaining intact after incubation with plasma: approximately 88%
[2]; 24 h
  SPNs remaining intact after incubation with plasma: ~75%
L02 cells
  cellular viability / toxicity of the carrier: relatively low toxicity
[3]
  solubility in PBS: good solubility
